{"source": "paper PMC10050189", "about": "“Alpha 2-macroglobulin acts as a clearance factor in the lysosomal degradation of extracellular misfolded proteins” (Scientific Reports, 2023)", "binders": {"B1": {"name": "His–ALFA–3C–PSMD5 (natural protein, human, UniProt Q16401 1-504, looked up)", "chain": "MAAQALALLREVARLEAPLEELRALHSVLQAVPLNELRQQAAELRLGPLFSLLNENHREKTTLCVSILERLLQAMEPVHVARNLRVDLQRGLIHPDDSVKILTLSQIGRIVENSDAVTEILNNAELLKQIVYCIGGENLSVAKAAIKSLSRISLTQAGLEALFESNLLDDLKSVMKTNDIVRYRVYELIIEISSVSPESLNYCTTSGLVTQLLRELTGEDVLVRATCIEMVTSLAYTHHGRQYLAQEGVIDQISNIIVGADSDPFSSFYLPGFVKFFGNLAVMDSPQQICERYPIFVEKVFEMIESQDPTMIGVAVDTVGILGSNVEGKQVLQKTGTRFERLLMRIGHQSKNAPVELKIRCLDAISSLLYLPPEQQTDDLLRMTESWFSSLSRDPLELFRGISSQPFPELHCAALKVFTAIANQPWAQKLMFNSPGFVEYVVDRSVEHDKASKDAKYELVKALANSKTIAEIFGNPNYLRLRTYLSEGPYYVKPVSTTAVEGAE", "notes": "26S proteasome non-ATPase regulatory subunit 5 (PSMD5), cDNA amplified from HeLa total cDNA; A 3C protease site stands between the tags and the protein; no cleavage is told; Heat-stressed at 50 °C for 1 h together with the chaperone; also called recombinant PSMD5; source: E. coli BL21(DE3) LOBSTR, purified (HisPur Cobalt Resin)"}}, "biological_target": "T1, α2M–mCherry–sfGFP–His (human (cDNA from HepG2), UniProt P01023 24-1474)", "T1 construct": "alpha 2-macroglobulin (α2M), cDNA amplified from HepG2 total cDNA; Tetramer with an intact thiol ester by native-PAGE and heat fragmentation; also called α2M–RG; α2M–RFP–GFP–His; source: purified from conditioned medium (Ni–NTA); not shown: mCherry, C-terminal, kept; sfGFP, C-terminal, kept", "T1 sequence (looked up)": "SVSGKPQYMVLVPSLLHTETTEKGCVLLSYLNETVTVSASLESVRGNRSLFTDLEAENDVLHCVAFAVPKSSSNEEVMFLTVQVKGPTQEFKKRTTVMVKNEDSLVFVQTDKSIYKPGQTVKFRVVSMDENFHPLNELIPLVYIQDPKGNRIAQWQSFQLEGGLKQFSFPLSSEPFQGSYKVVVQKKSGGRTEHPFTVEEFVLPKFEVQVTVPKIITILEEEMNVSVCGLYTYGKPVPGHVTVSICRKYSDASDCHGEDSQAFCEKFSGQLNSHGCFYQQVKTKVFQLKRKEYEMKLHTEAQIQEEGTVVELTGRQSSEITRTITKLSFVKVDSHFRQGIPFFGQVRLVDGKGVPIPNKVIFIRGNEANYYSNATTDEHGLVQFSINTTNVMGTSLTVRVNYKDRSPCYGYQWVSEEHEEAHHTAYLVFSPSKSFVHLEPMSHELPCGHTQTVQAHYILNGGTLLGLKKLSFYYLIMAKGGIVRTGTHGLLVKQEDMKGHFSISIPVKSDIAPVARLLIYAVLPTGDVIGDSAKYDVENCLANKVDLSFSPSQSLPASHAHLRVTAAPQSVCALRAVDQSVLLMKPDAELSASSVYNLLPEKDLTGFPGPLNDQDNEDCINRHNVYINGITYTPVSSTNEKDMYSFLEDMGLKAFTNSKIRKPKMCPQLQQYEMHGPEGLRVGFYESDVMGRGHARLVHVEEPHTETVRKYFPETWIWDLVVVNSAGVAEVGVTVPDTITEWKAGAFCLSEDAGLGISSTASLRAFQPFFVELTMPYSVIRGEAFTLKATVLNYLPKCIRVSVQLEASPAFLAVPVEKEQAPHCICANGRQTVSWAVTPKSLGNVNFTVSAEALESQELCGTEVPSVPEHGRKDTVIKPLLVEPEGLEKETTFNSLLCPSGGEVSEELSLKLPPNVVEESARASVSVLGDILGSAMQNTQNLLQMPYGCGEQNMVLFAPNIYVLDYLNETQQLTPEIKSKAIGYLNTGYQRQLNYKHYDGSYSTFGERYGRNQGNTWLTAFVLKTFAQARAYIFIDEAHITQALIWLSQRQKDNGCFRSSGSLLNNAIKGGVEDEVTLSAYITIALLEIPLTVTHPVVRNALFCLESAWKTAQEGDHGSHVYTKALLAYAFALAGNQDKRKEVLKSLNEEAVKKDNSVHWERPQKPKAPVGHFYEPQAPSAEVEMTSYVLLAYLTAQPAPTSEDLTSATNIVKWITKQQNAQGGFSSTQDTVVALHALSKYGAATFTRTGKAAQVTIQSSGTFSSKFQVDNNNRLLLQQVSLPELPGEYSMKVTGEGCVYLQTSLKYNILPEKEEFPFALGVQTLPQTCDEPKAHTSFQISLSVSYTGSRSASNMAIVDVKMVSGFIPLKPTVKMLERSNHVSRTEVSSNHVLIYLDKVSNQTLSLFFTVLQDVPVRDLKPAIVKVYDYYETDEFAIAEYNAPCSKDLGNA", "assay": "co-IP; purified α2M–RG (0.1 μM) mixed with purified substrate, pre-incubated at 50 °C (heat stress) or 4 °C for 1 h; anti-GFP (GFP-nanobody) sepharose 2 h at 4 °C, washed four times with PBS", "details": "both partners purified"}
{"binder": "B1", "values": [{"measurement": "binding result", "value": "binds"}]}
